Literature values in publication PMC10390508, “Structural insights into selective small molecule activation of PKG1α” (Communications Biology, 2023).

System: PKG1β
Conditions: PKG1β with 100 nM cGMP vs. PKG1α with 10 nM cGMP; full-length protein; cited from earlier work

SMILES | increase in concentration to elicit the same level of activation on PKG1β
O=C(O)c1ccc(CN2CCC[C@H](OC(CO)c3cc(Cl)cc(Cl)c3)[C@@H]2c2ccccc2)c([N+](=O)[O-])c1 (stereo partly drawn) [SMA1] | 12 x
Nc1cc(C(=O)O)ccc1CN1CCC[C@H](O[C@@H](CO)c2cc(Cl)cc(Cl)c2)[C@@H]1c1ccccc1 [SMA2] | 12 x
Cc1cc(C(=O)O)ccc1CN1CCC[C@H](O[C@@H](CO)c2cc(Cl)cc(Cl)c2)[C@@H]1c1ccccc1 [SMA3] | 6.5 x
